Laboratory results from US20220135538A1, “P300/CBP HAT INHIBITORS AND METHODS FOR THEIR USE” (Constellation Pharmaceuticals, Inc., priority 2019, published 2022).

Sequences of proteins named here, by UniProt entry; tags and fusion partners are left off. Residues count along the entry.
UniProt Q09472, 1287-1666 limits assumed: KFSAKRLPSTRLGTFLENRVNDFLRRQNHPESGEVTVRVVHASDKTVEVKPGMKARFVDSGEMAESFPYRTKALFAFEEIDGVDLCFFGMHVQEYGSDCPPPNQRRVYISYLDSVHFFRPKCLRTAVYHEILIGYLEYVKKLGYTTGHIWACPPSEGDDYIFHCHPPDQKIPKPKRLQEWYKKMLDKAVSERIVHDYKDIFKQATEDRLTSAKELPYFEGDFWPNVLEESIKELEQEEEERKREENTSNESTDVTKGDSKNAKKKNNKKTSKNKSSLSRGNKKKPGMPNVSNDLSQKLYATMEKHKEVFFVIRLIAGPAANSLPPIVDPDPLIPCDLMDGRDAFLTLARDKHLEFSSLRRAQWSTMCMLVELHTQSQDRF
UniProt Q09472, whole entry: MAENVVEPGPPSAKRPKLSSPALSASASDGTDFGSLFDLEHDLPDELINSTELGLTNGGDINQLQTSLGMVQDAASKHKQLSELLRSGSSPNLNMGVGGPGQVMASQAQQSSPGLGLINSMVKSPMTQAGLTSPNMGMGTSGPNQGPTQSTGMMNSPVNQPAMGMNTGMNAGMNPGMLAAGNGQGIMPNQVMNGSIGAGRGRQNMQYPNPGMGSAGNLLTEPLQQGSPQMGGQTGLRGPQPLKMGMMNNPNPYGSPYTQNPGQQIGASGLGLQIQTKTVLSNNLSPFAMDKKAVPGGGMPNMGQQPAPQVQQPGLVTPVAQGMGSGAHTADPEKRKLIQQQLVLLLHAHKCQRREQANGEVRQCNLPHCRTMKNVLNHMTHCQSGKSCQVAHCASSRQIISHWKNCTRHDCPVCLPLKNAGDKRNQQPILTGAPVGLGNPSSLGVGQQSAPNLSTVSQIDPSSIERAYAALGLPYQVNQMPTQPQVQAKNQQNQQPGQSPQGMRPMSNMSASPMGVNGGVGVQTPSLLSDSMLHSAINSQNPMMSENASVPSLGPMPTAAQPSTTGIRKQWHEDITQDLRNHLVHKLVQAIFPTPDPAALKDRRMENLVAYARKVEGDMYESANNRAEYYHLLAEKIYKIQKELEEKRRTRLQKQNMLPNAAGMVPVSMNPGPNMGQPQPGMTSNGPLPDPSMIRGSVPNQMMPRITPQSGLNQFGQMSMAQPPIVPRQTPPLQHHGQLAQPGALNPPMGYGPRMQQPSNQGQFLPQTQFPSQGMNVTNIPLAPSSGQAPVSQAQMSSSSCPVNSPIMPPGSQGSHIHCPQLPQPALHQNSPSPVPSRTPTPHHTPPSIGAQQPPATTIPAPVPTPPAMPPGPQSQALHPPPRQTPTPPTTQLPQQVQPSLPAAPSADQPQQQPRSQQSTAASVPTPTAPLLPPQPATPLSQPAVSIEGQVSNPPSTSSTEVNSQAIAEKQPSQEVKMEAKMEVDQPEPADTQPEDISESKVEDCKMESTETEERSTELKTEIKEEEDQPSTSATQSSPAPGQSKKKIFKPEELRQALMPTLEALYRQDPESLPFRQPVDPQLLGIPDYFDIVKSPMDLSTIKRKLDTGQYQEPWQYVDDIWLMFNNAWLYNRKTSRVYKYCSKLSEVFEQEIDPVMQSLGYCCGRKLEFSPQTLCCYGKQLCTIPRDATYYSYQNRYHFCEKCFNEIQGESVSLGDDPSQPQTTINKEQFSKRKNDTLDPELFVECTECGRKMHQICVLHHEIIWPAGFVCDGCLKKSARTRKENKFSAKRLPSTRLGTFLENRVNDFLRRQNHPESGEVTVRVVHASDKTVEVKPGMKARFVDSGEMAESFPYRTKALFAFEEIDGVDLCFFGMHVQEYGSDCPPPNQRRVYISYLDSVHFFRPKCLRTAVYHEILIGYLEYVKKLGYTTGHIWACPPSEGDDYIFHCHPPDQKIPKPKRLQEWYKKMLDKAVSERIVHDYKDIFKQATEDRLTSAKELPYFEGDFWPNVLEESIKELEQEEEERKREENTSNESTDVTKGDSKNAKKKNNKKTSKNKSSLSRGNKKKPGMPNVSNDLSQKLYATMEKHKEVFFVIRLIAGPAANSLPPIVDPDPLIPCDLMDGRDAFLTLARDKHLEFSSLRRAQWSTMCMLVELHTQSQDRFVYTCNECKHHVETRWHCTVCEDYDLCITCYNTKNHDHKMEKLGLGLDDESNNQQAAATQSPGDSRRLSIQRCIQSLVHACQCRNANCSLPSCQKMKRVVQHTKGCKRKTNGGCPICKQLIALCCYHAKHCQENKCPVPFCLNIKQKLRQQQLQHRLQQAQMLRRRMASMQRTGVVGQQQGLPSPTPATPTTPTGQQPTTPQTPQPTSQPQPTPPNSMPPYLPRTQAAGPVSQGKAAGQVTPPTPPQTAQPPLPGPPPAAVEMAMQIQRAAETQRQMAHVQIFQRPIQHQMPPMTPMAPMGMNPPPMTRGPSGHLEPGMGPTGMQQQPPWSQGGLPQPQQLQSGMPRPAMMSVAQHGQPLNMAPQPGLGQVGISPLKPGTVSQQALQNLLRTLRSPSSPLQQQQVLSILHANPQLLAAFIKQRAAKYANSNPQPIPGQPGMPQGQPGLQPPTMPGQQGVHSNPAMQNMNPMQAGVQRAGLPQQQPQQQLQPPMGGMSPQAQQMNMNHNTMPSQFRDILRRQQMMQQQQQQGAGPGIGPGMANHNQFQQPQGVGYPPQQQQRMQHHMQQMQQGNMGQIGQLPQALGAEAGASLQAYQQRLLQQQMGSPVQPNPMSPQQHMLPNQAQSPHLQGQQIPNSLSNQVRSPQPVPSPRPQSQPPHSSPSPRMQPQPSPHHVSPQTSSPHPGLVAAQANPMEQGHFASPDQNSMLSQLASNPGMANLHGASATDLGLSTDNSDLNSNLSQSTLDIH

Columns and labels:
[1] = target: p300 HAT domain (residues 1287-1666) (Homo sapiens, UniProt Q09472); experiment: P300 HAT SPA assay (scintillation proximity, acetylation of biotinylated H3(1-21) peptide); details: read-out: P300 HAT SPA IC50; 6 nM p300-HAT domain; average of at least 2 replicate titrations
Method: The activity of the compounds described herein as p300/CBP HAT inhibitors may be readily determined using a scintillation proximity assay (SPA) methodology (Udenfriend, S.; Gerber, L.; Nelson, N. Scintillation Proximity Assay: A Sensitive and Continuous Isotopic Method for Monitoring Ligand/Receptor and Antigen/Antibody Interactions. Anal. Biochem. 1987, 161, 494-500).
In a typical experiment the p300 HAT inhibitory activity of the compounds described herein was determined in accordance with the following experimental method.
The p300 HAT domain (residues 1287-1666) was expressed and purified with an N-terminal His tag from Escherichia coli cells. The expressed protein was purified by Ni2+affinity, followed by anion exchange chromatography. Appropriate fractions were pooled and buffer exchanged into 20 mM Hepes pH 7.5, 150 mM NaCl, and 1 mM TCEP.
(§1) Compounds of interest solubilized in DMSO were stamped in a Greiner black 384-well plate in a 10-point duplicate dose response using an Echo 550 (Labcyte). p300-HAT domain purified in-house (aa 1287-1666) was diluted to 6 nM in reaction buffer (50 mM Tris pH 8.0, 100 mM NaCl, 1 mM DTT, 0.069 mM Brij-35, 0.1 mM EDTA, 0.1 mg/mL BSA), combined with 4.14 μM AcCoA (Sigma-Aldrich) and 0.46 μM ^3H-AcCoA (PerkinElmer), and 12.5 μL added to each well and incubated for 30 min at RT. Reactions were initiated with 12.5 μL 2 μM biotinylated H3(1-21) peptide (New England Peptide) and run for 1 hr at RT, then quenched with 20 μL stop solution (200 mM Tris pH 8.0, 200 mM EDTA, 2M NaCl, 160 μM anacardic acid). 35 μL of the reaction volume was transferred to a 384-well streptavidin FlashPlate (PerkinElmer) using a Bravo liquid handler (Velocity 11) and incubated for 1.5 hr at RT. Plates were aspirated, washed with 95 μL wash buffer (15 mM Tris pH 8.5, 0.069 μM Brij-35), aspirated, sealed, and scintillation counts read on a Topcount (PerkinElmer). Data were analyzed in Genedata to determine inhibitor IC50 values.

full length p300 = full length p300 (Homo sapiens, UniProt Q09472); experiment: Full length p300 SPA assay; details: read-out: FL P300 IC50; 6 nM purified full length p300
Method: as §1
The full length p300 SPA assay was run following the same protocol as p300 HAT SPA assay, but used 6 nM purified full length p300 (purchased from Active Motif) in place of the purified p300-HAT domain.

[2] = system: acetylation of chromatin at H3K18 in HCT-116 cells; experiment: H3K18Ac MSD cellular assay; details: read-out: H3K18Ac MSD EC50, 2 hr treatment
Method: Select compounds were also evaluated in a H3K18Ac MSD cellular assay that measures the ability of compounds to inhibit the acetylation of chromatin at H3K18, a process catalyzed by p300 and CBP. In a typical experiment the p300 HAT inhibitory activity inside cells of the compounds described herein was determined in accordance with the following experimental method. 20 k HCT-116 cells per well are plated in 75 μL RPMI+10% FBS media the night before treatment. Compounds plated in DMSO at 4× final concentration are resuspended in 30 μL RPMI+10% FBS, then 25 μL is combined with corresponding wells containing cells. Treated cells are incubated for 2 hr at 37° C., then lysed in 500 μL final volume and frozen at −80° C. MSD plates (Meso Scale Discovery) are coated overnight at 4° C. with 60 μL 1:500 α-total histone antibody (Millipore MAB3422) in PBS. Plates are then blocked with 5% BSA in TBST shaking at RT for 1 hr, washed, and 30 μL lysate added to each well for 2 hr shaking at RT. Plates are washed and 25 μL 1:216 α-H3K18ac antibody (CST 9675) in PBS added, then incubated for 1 hr shaking at RT. […] Plates are washed once more, then 150 μL 1× Read Buffer (MSD #R92TD-3) is added to all wells and read on MSD SECTOR Imager 2400 using the conventional read setup.

Question: With C[C@H](CNC(C(=O)Nc1ccc(OC2CN(C(=O)CO)C2)cn1)c1ccccc1)c1ccc(C#N)cc1 (single isomer, unassigned) [27 Isomer 1] as the molecule, how does the IC50 [1] read?
Answer: The IC50 was 247 nM.

Question: For C[C@H](CNC(C(=O)Nc1ccc(OC2CNC2)cn1)c1ccccc1)c1ccc(C#N)cc1 (single isomer, unassigned) [26 Isomer 1], which IC50 [1] is on record?
Answer: The IC50 was 650 nM.

Question: For C[C@H](CNC(C(=O)Nc1ccc(OC2CN(C(=O)CO)C2)cn1)c1ccccc1)c1ccc(C#N)cc1 (single isomer, unassigned) [27 Isomer 2], which IC50 [1] is on record?
Answer: Its IC50 is > 1000 nM.

Question: C[C@H](CNC(C(=O)Nc1ccc(OC2CNC2)cn1)c1ccccc1)c1ccc(C#N)cc1 (single isomer, unassigned) [26 Isomer 2] was tested. Which IC50 [1] did it give?
Answer: The IC50 was 14 nM.

Question: And the IC50 (full length p300)?
Answer: The IC50 was 1.49 nM.

Question: What about the EC50 [2] of the same molecule?
Answer: The EC50 was 182 nM.
